Laboratory results taken from US20260193250A1, “TOLL-LIKE RECEPTOR 7 AGONISTS AS IMMUNE-STIMULATORS TO ELICIT THE INNATE ANTITUMOR IMMUNITY” (Merck Patent GmbH, priority 2022, published 2026).

The chains behind the UniProt entries cited, without tags or fusion partners. Residues count along the entry.
UniProt Q9NYK1, 27-1049 limits assumed: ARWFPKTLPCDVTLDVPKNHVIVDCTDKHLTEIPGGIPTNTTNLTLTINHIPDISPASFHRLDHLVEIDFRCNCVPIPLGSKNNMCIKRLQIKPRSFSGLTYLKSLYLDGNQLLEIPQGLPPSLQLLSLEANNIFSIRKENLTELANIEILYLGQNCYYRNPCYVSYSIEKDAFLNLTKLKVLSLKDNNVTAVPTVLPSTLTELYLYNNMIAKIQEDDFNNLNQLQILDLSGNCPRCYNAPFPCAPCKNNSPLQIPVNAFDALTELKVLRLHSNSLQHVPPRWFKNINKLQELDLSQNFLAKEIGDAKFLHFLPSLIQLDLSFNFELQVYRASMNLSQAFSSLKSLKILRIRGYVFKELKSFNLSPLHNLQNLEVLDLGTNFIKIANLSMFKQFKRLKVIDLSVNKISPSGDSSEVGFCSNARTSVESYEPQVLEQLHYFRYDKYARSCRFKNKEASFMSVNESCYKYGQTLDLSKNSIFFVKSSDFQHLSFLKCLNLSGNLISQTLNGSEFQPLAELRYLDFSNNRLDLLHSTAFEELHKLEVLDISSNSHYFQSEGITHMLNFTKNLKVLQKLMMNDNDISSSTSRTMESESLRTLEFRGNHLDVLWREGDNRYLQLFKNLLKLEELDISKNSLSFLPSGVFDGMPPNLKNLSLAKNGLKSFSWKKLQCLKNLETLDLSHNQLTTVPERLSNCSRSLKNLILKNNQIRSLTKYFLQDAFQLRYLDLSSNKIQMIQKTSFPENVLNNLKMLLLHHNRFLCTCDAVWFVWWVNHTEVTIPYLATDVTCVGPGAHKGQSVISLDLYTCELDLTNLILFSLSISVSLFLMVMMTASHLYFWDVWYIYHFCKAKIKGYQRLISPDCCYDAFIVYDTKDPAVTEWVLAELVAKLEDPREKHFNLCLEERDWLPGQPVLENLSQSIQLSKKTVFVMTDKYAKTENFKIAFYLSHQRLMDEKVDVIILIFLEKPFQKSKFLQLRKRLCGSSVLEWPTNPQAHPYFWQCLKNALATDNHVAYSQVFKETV
UniProt Q9NR97, 27-1041 limits assumed: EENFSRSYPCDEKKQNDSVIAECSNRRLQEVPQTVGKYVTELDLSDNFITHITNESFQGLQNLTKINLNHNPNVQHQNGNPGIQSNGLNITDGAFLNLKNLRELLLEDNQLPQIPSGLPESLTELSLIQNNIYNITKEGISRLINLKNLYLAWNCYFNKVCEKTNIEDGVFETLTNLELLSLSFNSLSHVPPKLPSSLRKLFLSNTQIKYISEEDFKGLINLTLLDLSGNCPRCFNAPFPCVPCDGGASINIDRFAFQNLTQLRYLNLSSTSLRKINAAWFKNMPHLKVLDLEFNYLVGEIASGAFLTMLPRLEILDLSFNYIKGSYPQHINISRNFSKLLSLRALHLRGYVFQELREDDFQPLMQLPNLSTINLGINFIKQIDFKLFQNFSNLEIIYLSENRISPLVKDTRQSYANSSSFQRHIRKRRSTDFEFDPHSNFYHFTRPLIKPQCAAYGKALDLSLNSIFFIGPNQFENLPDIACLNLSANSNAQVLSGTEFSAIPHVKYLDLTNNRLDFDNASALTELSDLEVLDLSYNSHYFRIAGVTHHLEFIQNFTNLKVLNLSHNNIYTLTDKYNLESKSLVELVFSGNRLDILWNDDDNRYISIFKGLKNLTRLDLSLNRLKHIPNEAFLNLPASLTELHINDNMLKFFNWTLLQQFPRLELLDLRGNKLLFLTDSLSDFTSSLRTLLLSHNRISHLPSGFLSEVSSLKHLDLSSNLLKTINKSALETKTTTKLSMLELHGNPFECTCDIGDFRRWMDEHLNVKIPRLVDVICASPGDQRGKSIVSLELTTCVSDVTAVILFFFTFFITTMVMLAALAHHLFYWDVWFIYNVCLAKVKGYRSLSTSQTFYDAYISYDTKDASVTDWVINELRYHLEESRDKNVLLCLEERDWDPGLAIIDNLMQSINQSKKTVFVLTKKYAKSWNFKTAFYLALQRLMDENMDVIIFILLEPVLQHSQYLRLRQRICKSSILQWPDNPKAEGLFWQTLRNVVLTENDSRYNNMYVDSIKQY

Key:
hTLR7 = hTLR7 (Homo sapiens, UniProt Q9NYK1); experiment: TLR7 reporter assay in HEK-Blue cells (SEAP, Quanti-Blue); type: cell-based; settings: read-out: TLR7 EC50, 24 hours incubation, SEAP absorbance at 620 nm
[1] = tested on: Peripheral blood mononuclear cells (PBMC); experiment: TNFα secretion from PBMCs; settings: read-out: TNFα EC50; human PBMCs, 18 hours incubation, MILLIPLEX bead panel
hTLR8 = hTLR8 (Homo sapiens, UniProt Q9NR97); experiment: TLR8 reporter assay in HEK-Blue cells (SEAP, Quanti-Blue); type: cell-based; settings: read-out: TLR8 EC50, 24 hours incubation, SEAP absorbance at 620 nm

Compound | EC50 (hTLR7) | EC50 (hTLR8) | EC50 [1]
CCCCNc1nc(N)c2[nH]c(=O)n(Cc3ccc(C(=O)NCC(=O)O)cc3)c2n1 | 1000 to 10000 nM | > 10000 nM | 1000 to 10000 nM
CCCCc1nc2c(N)nc3ccccc3c2n1CCCCN | – | – | 1000 to 10000 nM

Second part, led by results:

EC50 (hTLR7) | EC50 (hTLR8) | Compound | EC50 [1]
100 to 1000 nM | > 10000 nM | CCCCc1nc2c(N)nc3ccccc3c2n1CCN1CCNCC1 | 1000 to 10000 nM
10 to 100 nM | 1000 to 10000 nM | CCOCc1nc2c(N)nc3ccccc3c2n1CC(C)(C)OCCNC(=O)C(C)(C)N | > 10000 nM
10 to 100 nM | 10 to 100 nM | CCOCc1nc2c(N)nc3ccccc3c2n1CC(C)(C)OCCN | –
